Reference: PMC2915928 (Bioorganic & medicinal chemistry, 2009)
Read-outs that look alike come from different tables or passages of the source.

The chains behind the UniProt entries cited, without tags or fusion partners. Where a name states a change or a piece, a line headed by the entry shows the natural chain unless it says otherwise.
UniProt P42866, whole entry: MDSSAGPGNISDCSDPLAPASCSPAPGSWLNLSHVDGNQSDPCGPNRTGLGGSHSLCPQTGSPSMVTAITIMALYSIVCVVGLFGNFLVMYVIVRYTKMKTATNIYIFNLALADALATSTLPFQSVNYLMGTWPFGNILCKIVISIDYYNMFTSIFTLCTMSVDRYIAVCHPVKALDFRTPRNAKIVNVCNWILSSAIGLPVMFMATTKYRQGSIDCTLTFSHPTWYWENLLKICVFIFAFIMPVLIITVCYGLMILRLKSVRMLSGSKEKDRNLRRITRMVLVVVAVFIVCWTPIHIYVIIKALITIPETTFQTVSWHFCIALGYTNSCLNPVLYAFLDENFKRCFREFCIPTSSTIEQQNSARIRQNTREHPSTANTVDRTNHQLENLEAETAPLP
UniProt P41146: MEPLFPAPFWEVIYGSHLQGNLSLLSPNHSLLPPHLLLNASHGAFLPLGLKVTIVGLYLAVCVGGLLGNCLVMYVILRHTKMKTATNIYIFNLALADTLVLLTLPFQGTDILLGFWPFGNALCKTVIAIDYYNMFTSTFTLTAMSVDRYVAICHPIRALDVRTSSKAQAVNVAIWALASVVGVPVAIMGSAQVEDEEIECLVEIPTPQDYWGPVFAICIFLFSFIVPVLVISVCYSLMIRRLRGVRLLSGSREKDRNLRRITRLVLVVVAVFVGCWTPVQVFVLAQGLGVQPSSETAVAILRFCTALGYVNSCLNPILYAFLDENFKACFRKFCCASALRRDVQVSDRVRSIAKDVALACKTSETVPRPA

Key:
μ-opioid receptor [1] = molecular target: T1, μ-opioid receptor (Mus musculus, UniProt P42866); experiment: biochemical
μ-opioid receptor [2] = molecular target: T1, μ-opioid receptor; experiment: biochemical; remark: listed apart in the source
μ-opioid receptor [3] = molecular target: T1, μ-opioid receptor; experiment: biochemical; remark: listed apart in the source
[4] = molecular target: nociceptin (NOP) receptor (Homo sapiens, UniProt P41146); format: biochemical

Compound: O=C(N[C@@H]1CC[C@@]2(O)[C@H]3Cc4ccc(O)c5c4[C@@]2(CCN3CC2CC2)[C@H]1O5)c1ccc(I)cc1 [Compound 7, 17-Cyclopropylmethyl-3,14β-dihydroxy-4,5α-epoxy-6β-[(4′-iodo)benzamido] morphinan]
- EC50 (μ-opioid receptor [1]): > 10 µM
- Ki (μ-opioid receptor [2]): > 10 µM

Compound: CC(C)(C)c1ccc(C(=O)N[C@@H]2CC[C@@]3(O)[C@H]4Cc5ccc(O)c6c5[C@@]3(CCN4CC3CC3)[C@H]2O6)cc1 [Compound 8, 17-Cyclopropylmethyl-3,14β-dihydroxy-4,5α-epoxy-6β-[(4′-t-butyl)benzamido] morphinan]
- EC50 (μ-opioid receptor [3]): > 10 µM
- Ki (μ-opioid receptor [2]): > 10 µM

Compound: nociceptin [Compound 15, reference compound]
- NOP Emax, stimulation of [35S]GTPγS binding [4]: 109 ± 11%

Compound: O=C(N[C@@H]1CC[C@@]2(O)[C@H]3Cc4ccc(O)c5c4[C@@]2(CCN3CC2CC2)[C@H]1O5)c1ccc(Cl)cc1 [Compound 10, 17-cyclopropylmethyl-3,14β-dihydroxy-4,5α-epoxy-6β-[(4′-chloro)benzamido] morphinan]
- EC50 (μ-opioid receptor [1]): > 10 µM

Compound: O=C(N[C@@H]1CC[C@@]2(O)[C@H]3Cc4ccc(O)c5c4[C@@]2(CCN3CC2CC2)[C@H]1O5)c1ccc(Br)cc1.O=C(O)C(=O)O [Compound 6, 17-Cyclopropylmethyl-3,14β-dihydroxy-4,5α-epoxy-6β-[(4′-bromo)benzamido] morphinan]
- EC50 (μ-opioid receptor [1]): > 10 µM
- Ki (μ-opioid receptor [2]): > 10 µM

Compound: O=C(N[C@@H]1CC[C@@]2(O)[C@H]3Cc4ccc(O)c5c4[C@@]2(CCN3CC2CC2)[C@H]1O5)c1ccc(C(F)(F)F)cc1 [Compound 5, 17-Cyclopropylmethyl-3,14β-dihydroxy-4, 5α-epoxy-6β-[(4′-trimethylfluoro)benzamido] morphinan]
- EC50 (μ-opioid receptor [1]): > 10 µM
- Ki (μ-opioid receptor [2]): > 10 µM

Compound: Cc1ccc(C(=O)N[C@@H]2CC[C@@]3(O)[C@H]4Cc5ccc(O)c6c5[C@@]3(CCN4CC3CC3)[C@H]2O6)cc1 [Compound 4, 17-Cyclopropylmethyl-3, 14β-dihydroxy-4, 5α-epoxy-6 β-[(4′-methyl)benzamido] morphinan]
- Emax (μ-opioid receptor [1]; read-out: μ Emax, inhibition of basal [35S]GTPγS binding): 33 ± 2.4%
- EC50 (μ-opioid receptor [3]): > 10 µM
